The experiment deals with Phosphatidylinositol 4,5-bisphosphate 3-kinase catalytic subunit gamma isoform (Homo sapiens, UniProt P48736).

The chains behind the UniProt entries cited, without tags or fusion partners. Where a name states a change or a piece, a line headed by the entry shows the natural chain unless it says otherwise.
UniProt P48736: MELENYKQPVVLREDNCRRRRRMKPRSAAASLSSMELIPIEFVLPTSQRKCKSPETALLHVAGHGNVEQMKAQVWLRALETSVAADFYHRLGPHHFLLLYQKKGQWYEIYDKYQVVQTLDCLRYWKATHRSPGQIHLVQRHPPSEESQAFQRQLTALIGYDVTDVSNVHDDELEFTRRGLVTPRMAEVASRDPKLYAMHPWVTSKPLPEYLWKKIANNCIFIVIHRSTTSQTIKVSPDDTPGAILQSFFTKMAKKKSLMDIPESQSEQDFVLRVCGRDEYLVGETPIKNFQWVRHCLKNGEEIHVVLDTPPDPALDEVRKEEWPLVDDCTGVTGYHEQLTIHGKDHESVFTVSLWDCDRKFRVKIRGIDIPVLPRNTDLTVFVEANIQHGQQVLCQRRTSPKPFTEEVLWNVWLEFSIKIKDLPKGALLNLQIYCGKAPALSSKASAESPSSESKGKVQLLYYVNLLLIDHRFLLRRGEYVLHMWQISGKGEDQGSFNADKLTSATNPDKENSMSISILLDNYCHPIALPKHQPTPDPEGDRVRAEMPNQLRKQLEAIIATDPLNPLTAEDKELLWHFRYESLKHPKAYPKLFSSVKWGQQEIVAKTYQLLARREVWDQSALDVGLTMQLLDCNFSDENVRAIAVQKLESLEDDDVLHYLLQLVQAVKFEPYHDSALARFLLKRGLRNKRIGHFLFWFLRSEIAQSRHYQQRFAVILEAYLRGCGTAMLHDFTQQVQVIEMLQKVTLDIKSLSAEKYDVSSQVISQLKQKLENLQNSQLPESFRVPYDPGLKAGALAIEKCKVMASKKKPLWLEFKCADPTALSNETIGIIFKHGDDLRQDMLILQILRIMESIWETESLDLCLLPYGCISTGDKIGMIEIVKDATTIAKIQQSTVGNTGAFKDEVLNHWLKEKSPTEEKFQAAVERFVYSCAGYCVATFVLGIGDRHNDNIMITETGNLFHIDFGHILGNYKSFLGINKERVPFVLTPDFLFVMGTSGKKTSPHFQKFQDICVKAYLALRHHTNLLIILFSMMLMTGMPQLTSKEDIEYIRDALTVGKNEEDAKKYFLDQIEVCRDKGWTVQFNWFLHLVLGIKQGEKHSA

The values below come from ChEMBL document CHEMBL3392967, “Phosphatidylinositol 3-Kinase (PI3K) and phosphatidylinositol 3-kinase-related kinase (PIKK) inhibitors: importance of the morpholine ring” (J Med Chem, 2015).

Molecules are shown by their SMILES.

For the compound `O=c1cc(N2CCOCC2)oc2c(-c3ccccc3)cccc12` [LY-294002], half-maximal inhibition (IC50) required 12 µM.
